Tests used:
[1] = biological target: T1, Protein kinase C epsilon type (Homo sapiens, UniProt Q02156); assay: Inhibition of Protein kinase C epsilon
T1 sequence (Q02156 whole entry): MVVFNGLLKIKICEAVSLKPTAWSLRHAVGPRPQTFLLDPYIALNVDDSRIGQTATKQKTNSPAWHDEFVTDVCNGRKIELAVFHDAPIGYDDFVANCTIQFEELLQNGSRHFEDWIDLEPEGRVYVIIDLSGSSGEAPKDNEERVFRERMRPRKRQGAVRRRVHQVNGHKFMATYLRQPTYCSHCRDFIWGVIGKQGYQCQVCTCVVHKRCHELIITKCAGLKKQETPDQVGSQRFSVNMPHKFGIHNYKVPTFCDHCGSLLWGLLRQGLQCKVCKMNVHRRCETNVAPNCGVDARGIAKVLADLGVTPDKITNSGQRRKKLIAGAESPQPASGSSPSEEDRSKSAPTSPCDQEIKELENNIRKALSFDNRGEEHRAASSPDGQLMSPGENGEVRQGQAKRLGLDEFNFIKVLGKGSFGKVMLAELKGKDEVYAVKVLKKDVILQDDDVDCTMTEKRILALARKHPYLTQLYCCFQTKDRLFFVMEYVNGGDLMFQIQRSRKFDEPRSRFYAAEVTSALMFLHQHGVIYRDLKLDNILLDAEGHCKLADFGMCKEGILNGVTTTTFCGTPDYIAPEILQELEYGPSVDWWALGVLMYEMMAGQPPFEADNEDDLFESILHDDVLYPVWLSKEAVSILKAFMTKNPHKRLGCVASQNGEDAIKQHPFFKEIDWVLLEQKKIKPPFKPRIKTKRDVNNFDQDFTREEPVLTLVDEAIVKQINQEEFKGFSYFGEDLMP

[2] = biological target: cAMP-dependent protein kinase (PKA) (Homo sapiens, UniProt P22694+P17612+P22612); assay: Inhibition of Protein Kinase A; format: protein assay

| IC50 [1] | SMILES | IC50 [2] |
| --- | --- | --- |
| 44 nM | O=C(N[C@@H]1CNCCCC1OC(=O)c1cc(O)c(C(=O)c2c(O)cccc2C(=O)O)c(O)c1)c1ccc(O)cc1 (mixture of isomers) | – |
| – | O=C(NC1CCC[C@@H]1OC(=O)c1cc(O)c(C(=O)c2c(O)cccc2C(=O)O)c(O)c1)c1ccc(O)cc1 (mixture of isomers) | 30 nM |

— ChEMBL document CHEMBL1149965, “Synthesis and biological evaluation of conformationally constrained bicyclic and tricyclic balanol analogues as inhibitors of protein kinase C” (Bioorg Med Chem Lett, 1995)
